Reference: ChEMBL document CHEMBL1153953, “Synthesis and pharmacological evaluation of coumarin derivatives as cannabinoid receptor antagonists and inverse agonists” (Bioorg Med Chem, 2009)

Sequences of proteins named here, by UniProt entry; tags and fusion partners are left off.
UniProt P34972, whole entry: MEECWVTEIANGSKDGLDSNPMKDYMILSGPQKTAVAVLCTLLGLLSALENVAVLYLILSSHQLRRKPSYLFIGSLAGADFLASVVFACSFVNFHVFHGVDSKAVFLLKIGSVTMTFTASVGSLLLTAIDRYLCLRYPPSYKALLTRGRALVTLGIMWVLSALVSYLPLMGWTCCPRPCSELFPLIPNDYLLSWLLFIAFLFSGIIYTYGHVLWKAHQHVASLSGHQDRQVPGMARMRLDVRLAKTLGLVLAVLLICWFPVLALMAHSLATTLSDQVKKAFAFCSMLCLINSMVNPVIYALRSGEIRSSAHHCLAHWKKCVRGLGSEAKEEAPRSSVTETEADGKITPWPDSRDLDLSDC

Experiments:
Cannabinoid receptor 2 [1] = target: T1, Cannabinoid receptor 2 (Rattus norvegicus, UniProt Q9QZN9); experiment: Binding affinity to rat spleen cannabinoid CB2 receptor; assay type: tissue-based
T1 sequence (Q9QZN9 whole entry): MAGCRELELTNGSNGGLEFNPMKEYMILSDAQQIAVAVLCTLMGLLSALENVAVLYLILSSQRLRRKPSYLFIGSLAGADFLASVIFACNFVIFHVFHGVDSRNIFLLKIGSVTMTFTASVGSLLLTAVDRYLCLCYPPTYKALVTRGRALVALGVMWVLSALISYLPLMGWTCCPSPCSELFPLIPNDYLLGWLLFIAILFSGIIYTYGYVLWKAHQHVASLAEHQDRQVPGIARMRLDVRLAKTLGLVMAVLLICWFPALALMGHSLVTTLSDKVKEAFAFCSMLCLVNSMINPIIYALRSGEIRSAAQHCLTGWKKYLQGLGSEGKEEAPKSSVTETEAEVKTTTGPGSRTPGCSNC

Cannabinoid receptor 2 [2] = target: Cannabinoid receptor 2 (Homo sapiens, UniProt P34972); experiment: Displacement of [3H]CP-55940 from human recombinant cannabinoid CB2 receptor expressed in HEK293 cells; assay type: cell-based

Ki (Cannabinoid receptor 2 [1]): 4.2 µM | Ki (Cannabinoid receptor 2 [2]): 4.87 µM
SMILES: Cc1c(C(=O)NN2CCOCC2)nn(-c2ccc(Cl)cc2Cl)c1-c1ccc(I)cc1
